The target in this experiment is His-AKT (Full Length) (Homo sapiens (Human), UniProt P31749). The experiment in a line: AKT enzyme assay. The experiment is classed as biochemical. As for the experimental part: A TTP Mosquito liquid handling instrument is used to place 125n1 of the appropriate concentration of inhibitor in 100% DMSO (for a dose response curve calculation) into each well of a 384-well plate.
The reaction is incubated for 90 min at 25 C, and then stopped by the addition of 70 μl of Stop buffer (100 mM HEPES pH 7.5, 0.015% Brij-35, 10 mM EDTA (Sigma, E7889)).
The plate is read on a Caliper LC 3000 in an Off-Chip mobility shift assay format, using the following parameters for a 12-sipper chip: screening pressure −2.3 psi, upstream voltage −500, and downstream voltage −3000. These conditions cause unphosphorylated substrate and phosphorylated product peptide to resolve as separate peaks allowing direct measurement of percentage of conversion of substrate to product. The percent conversion can be plotted against concentration of inhibitor to produce a sigmoidal dose response curve, from which an IC50 can be calculated.

By UniProt entry, the sequences of proteins in these tests, tags left out. Where a name states a change or a piece, a line headed by the entry shows the natural chain unless it says otherwise.
UniProt P31749: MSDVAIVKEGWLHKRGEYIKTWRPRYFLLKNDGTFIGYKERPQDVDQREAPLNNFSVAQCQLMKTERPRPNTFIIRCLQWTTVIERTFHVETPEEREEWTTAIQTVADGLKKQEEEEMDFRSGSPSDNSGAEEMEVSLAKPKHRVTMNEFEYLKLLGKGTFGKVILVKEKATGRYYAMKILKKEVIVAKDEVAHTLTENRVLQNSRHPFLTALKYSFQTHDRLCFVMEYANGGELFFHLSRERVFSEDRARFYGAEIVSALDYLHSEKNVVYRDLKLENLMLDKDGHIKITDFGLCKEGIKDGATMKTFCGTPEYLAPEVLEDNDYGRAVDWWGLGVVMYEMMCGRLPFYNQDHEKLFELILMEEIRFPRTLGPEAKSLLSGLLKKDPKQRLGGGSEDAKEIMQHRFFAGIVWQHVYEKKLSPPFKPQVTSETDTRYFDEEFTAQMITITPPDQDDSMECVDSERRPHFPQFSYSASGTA

Molecules are shown by their SMILES.

The IC50 is the concentration at which inhibition is half-maximal. Lower therefore signals greater potency in that assay.

Consider `CCOc1c(N)ncnc1N1CCC(c2nc(-c3ccc(F)c(Cl)c3)cn2CCN2CCCC2)CC1` [Compound 289], for which the IC50 was 2.1 nM.
Compound `CCc1c(N)ncnc1N1CCC(c2nc(-c3ccnc(C(F)(F)F)c3)cn2CCNC)CC1` [Compound 171, 5-ethyl-6-(4-(1-(2-(methylamino)ethyl)-4-(2-(trifluoromethyl)pyridin-4-yl)-1H-imidazol-2-yl)piperidin-1-yl)pyrimidin-4-amine] registered an IC50 of 2.1 nM.

These data come from patent US9145392B2, “Imidazole amines as modulators of kinase activity” (Merck Patent GmbH, priority 2011, dated 2015).
